Test results published in patent publication US11767353B2, “Trail compositions with reduced immunogenicity” (Theraly Fibrosis, Inc., priority 2020, dated 2023).

Key:
[1] = Thermal Shift assay (thermodynamic stability); assay type: physicochemical; details: FIG. 2A
Protocol: Proteins were purified using NTA agarose and tested for purity, thermodynamic stability and biological activity. iLZ-TRAIL-containing cells were lysed and supernatant containing high salt (1M NaCl) was prepared by centrifugation. Nucleic acids were digested using benzonase and the resultant cell lysate was incubated with Zn-NTA resin (batch or column) in the presence of low imidazole (typically 10 mM) until the binding capacity of the resin was saturated with respect to iLZ-TRAIL binding. The resin was washed with high-salt buffer in the presence of low imidazole as a batch or as a column content and iLZ-TRAIL was eluted with 125-250 mM imidazole. Eluted proteins were dialyzed against the buffers required for specific assays.

[2] = system: COLO 205 cells; assay: Cell viability bioassay (CELL TITER-GLO) on COLO 205 cells; assay type: cell-based, Human
Excerpt: TLY012 is a PEGylated form of rhTRAIL, genetically fused to a humanized coiled-coil isoleucine “zipper” (miLZ) at the N-terminus. It is a DR4/DR5 receptor agonist and as such is known to induce apoptosis in Human colon adenocarcinoma cells COLO 205 resulting in inhibition of cell proliferation. CELL TITER-GLO™ (Promega, WI) was used to measure luminescence in conventional luciferase assay system. This assay is a homogeneous method to determine the number of metabolically active cells based on quantitation of the ATP present. […]
Assay Procedure. […] The 96-well plates were placed into a 37±1.0° C.; 5±0.5% CO2; ≥85% relative humidity cell culture incubator in a single layer and incubated for 1±0.5 hours until cells are ready. […] As a result, inhibition of cell proliferation is measured by adding the CELL TITER-GLO™ solution to the cells, the lysed cells release ATP. […]
The growth medium was RPMI1640 with 10% FBS, glutamine, penicillin/streptomycin solution. […] Cell suspension was transferred to the white 96-well plates and luminescence was measured by BIOTEK plate reader.
Data were analyzed using BioTek Gen5secure software. The dose response curves were generated using the four-parameter fit logistic model and the IC50 values for reference standard and test samples were calculated. Potency of the test sample is expressed as the ratio of the IC50 values of the test and reference standard samples. […]

[3] = Solubility at PEGylation in solution, pH 5.0; assay type: physicochemical
Excerpt: The fusion polypeptides used in this study were the same as those in Example 3.

[4] = system: Human Colon Carcinoma Fibroblasts HC-6231; assay: Caspase 3/7 activity in colon cancer associated fibroblasts; assay type: cell-based; details: TLY012 30 ng/ml 3h vs Gemcitabine, Doxorubicin, Cisplatin, 5-FU, Irinotecan 24 hours, FIG. 12B
Excerpt: Human Colon Carcinoma Fibroblasts HC-6231 were obtained from Cell Biologics (Catalog Number HC-6231) and maintained in fibroblast media (Cell Biologics, Catalog Number M2267).

Molecule | thermodynamic stability in Thermal Shift assay compared to HisTag-iLZ-TRAIL [1] | thermodynamic stability in Thermal Shift assay compared to HisTag-iLZ-TRAIL ([1]; listed as fusion polypeptide containing SEQ ID NO: 4 as the first sequence and SEQ ID NO:1) | fold higher biological activity in cell viability bioassay vs His-tag iLZ-TRAIL ([2]; FIG. 2B) | starting concentration in PEGylation experiments, no solubility issues observed [3] | apoptosis (fold increase in caspase 3/7 activation) among tested cytotoxic agents [4] | fold higher biological activity (cytotoxicity) vs the prototype (PEGylated TRAIL with HIS-tag) ([2]; COLO 205 cells, Table 2)
miLZ-TRAIL: recombinant human TRAIL (amino acids 114-281) preceded by deimmunized isoleucine zipper (SEQ ID NO:4), without His tag (protein) GRMKQIEDKIEEILSKIYHVENEIARIKELIGEDGVRERGPQRVAAHITGTRGRSNTLSSPNSKNEKALGRKINSWESSRSGHSFLSNLHLRNGELVIHEKGFYYIYSQTYFRFQEEIKENTKNDKQMVQYIYKYTSYPDPILLMKSARNSCWSKDAEYGLYSIYQGGIFELKENDRIFVSVTNEHLIDMDHEASFFGAFLVG | just a small shoulder instead of the first peak | statistically higher thermodynamic stability | about 5 fold | 15 mg/mL | – | –
TLY012: PEGylated (5 kDa PEG-aldehyde) recombinant human TRAIL (114-281) fused to modified isoleucine zipper (miLZ) at N-terminus; SEQ ID NO:30 trimer (conjugate, 5 kDa PEG; trimer) GRMKQIEDKIEEILSKIYHVENEIARIKELIGEDGVRERGPQRVAAHITGTRGRSNTLSSPNSKNEKALGRKINSWESSRSGHSFLSNLHLRNGELVIHEKGFYYIYSQTYFRFQEEIKENTKNDKQMVQYIYKYTSYPDPILLMKSARNSCWSKDAEYGLYSIYQGGIFELKENDRIFVSVTNEHLIDMDHEASFFGAFLVG | – | – | – | – | significantly greater apoptosis | 9 fold
